{
  "source": "paper PMC2910123",
  "about": "(Journal of inorganic biochemistry, 2010)",
  "system": "normal mouse splenocytes",
  "type": "cell-based",
  "details": "mouse splenocytes, 10, 50 and 100 µM, 20 h",
  "data": [
    {"substance": "[Ru(η^6-p-cymene)(η^6-CQDP)][BF4]2 [Complex 5]", "values": [
      {"measurement": "toxicity to normal cells (in words)", "result": "comparable to or lower than that of CQDP"}
    ]}
  ]
}
